Data: patent publication US12397096B2, “Red blood cells for drug delivery” (POLITECNICO DI MILANO, priority 2019, dated 2025)

System: red blood cells

Substance: FITC-dextran [FITC-dextran 40 kDa]
- red blood cell morphology / damage after encapsulation: not damaged by the presence of the encapsulated dextran
